Measured values from ChEMBL document CHEMBL5365487, “Development of 18F-Labeled PET Tracer Candidates for Imaging of the Abelson Non-receptor Tyrosine Kinase in Parkinson's Disease” (J Med Chem, 2023).

Sequences of proteins named here, by UniProt entry; tags and fusion partners are left off.
UniProt P00519, whole entry: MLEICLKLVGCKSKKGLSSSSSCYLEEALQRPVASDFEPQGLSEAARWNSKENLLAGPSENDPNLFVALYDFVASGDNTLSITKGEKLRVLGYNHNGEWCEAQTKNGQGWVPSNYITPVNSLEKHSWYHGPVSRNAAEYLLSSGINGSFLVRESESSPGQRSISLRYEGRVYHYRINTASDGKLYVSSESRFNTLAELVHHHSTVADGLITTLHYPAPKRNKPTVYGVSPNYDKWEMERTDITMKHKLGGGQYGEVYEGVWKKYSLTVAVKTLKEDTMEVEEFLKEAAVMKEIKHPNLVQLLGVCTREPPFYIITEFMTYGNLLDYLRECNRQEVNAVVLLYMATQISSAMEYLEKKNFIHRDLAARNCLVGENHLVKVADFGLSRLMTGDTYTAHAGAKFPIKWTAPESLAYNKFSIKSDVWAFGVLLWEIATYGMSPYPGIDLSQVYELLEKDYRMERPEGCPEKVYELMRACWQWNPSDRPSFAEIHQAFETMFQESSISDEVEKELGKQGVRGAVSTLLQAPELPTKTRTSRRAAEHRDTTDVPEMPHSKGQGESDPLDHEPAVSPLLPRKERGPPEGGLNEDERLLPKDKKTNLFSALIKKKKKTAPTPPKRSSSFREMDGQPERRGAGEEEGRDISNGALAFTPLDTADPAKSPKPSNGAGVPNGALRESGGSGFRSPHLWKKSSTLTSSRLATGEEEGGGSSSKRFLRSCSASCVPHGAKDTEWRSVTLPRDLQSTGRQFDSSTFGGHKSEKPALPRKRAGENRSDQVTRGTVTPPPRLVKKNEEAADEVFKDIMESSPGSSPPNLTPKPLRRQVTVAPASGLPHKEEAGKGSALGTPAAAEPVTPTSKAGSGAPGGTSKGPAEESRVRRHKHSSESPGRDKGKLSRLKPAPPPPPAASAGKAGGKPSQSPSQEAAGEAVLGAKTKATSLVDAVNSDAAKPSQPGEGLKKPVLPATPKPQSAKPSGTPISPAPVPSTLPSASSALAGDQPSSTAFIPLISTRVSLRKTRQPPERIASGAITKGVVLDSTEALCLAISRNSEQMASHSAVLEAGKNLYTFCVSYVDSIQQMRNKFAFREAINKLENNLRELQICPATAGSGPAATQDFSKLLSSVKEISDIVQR

Target: Tyrosine-protein kinase ABL1 (Homo sapiens, UniProt P00519)
Assay: Inhibition of His-tagged recombinant human c-Abl/ABL measured after 30 mins by ADP-GloTM assay

Question: `Cc1cc(F)ncc1-c1ccc2nc(NC(=O)[C@@H]3C[C@@H]3F)sc2c1` was tested. Which IC50 did it give?
Answer: Its IC50 is 14.5 nM.
